Source: US20070072874A1, “Aminoheteroaryl compounds as protein kinase inhibitors” (Sugen, Inc., priority 2003, published 2007)

By UniProt entry, the sequences of proteins in these tests, tags left out. Residues count along the entry.
UniProt P08581, 1078-1345 limits assumed: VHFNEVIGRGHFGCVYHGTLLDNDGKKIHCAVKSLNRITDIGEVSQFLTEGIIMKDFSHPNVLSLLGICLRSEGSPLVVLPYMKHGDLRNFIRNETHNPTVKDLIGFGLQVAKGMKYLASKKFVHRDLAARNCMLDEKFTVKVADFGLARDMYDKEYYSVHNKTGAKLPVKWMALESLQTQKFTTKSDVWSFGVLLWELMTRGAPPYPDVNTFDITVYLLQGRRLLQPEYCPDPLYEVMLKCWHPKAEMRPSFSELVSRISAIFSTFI

These molecules were tested against T1, GST fusion protein containing the Met kinase domain (Homo sapiens, UniProt P08581) (assay: MET transphosphorylation assay (ELISA, poly(glu-tyr) substrate)).
T1 construct: Purified GST fusion protein containing the Met kinase domain, SUGEN, Inc
Assay type: biochemical
Method: MET Transphosphorylation Assay
8. 10% aqueous (MilliQue H2O) DMSO.
11. 4× ATP Reaction Mixture: for 10 mL, mix 0.4 mL 1 M manganese chloride and 0.02 mL 0.1 M ATP in 9.56 mL dH2O.
12. 4× Negative Controls Mixture: for 10 mL, mix 0.4 mL 1 M manganese chloride in 9.6 mL dH2O.
17. Goat anti-rabbit horseradish peroxidase conjugated antibody, Biosource, Inc.
18. ABTS Solution: for 1 L, mix 19.21 g citric acid, 35.49 g Na2HPO4 and 500 mg ABTS with sufficient dH2O to make 1 L.
2. Block plate with 150 μL of 5% BSA/PBS for 60 min.
4. Add 50 μl of the diluted kinase to all wells. (Purified kinase is diluted with Kinase Dilution Buffer. Final concentration should be 10 ng/well.)
5. Add 25 μL of the test compound (in 4% DMSO) or DMSO alone (4% in dH2O) for controls to plate.
6. Incubate the kinase/compound mixture for 15 minutes.
7. Add 25 μL of 40 mM MnCl2 to the negative control wells.
8. Add 25 μL ATP/MnCl2 mixture to the all other wells (except the negative controls). Incubate for 5 min.
9. Add 25 μL 500 mM EDTA to stop reaction.
10. Wash plate 3× with TBST.
11. Add 100 μL rabbit polyclonal anti-Ptyr diluted 1:10,000 in Antibody Dilution Buffer to each well. Incubate, with shaking, at room temperature for one hour.
12. Wash plate 3× with TBST.
13. […] Add 100 μL per well and incubate at room temperature, with shaking, for one hour.
14. Wash plate 1× with PBS.
15. Add 100 μl of ABTS/H2O2 solution to each well.
16. If necessary, stop the development reaction with the addition of 100 μl of 0.2M HCl per well.

**Q.** `Nc1ncc(-c2ccc(C(=O)N3CCC[C@@H](CNC4CC4)C3)cc2)cc1OCc1c(Cl)cccc1Cl` [Example I-45, {4-[6-Amino-5-(2,6-dichloro-benzyloxy)-pyridin-3-yl]-phenyl}-[(3S)-3-cyclopropylaminomethyl-piperidin-1-yl]-methanone] was tested. Which IC50 did it give?
**A.** 770 nM

**Q.** For `CC(=O)N1CCN(C(=O)c2ccc(-c3cnc(N)c(OCc4ccccc4C(F)(F)F)c3)cc2)CC1` [Example I-189, 1-(4-{4-[6-Amino-5-(2-trifluoromethyl-benzyloxy)-pyridin-3-yl]-benzoyl}-piperazin-1-yl)-ethanone], which IC50 is on record?
**A.** 6700 nM

**Q.** How did the IC50 turn out when `CC(Oc1cc(-c2ccc(NS(=O)(=O)CCN(C)C)cc2)cnc1N)c1c(Cl)ccc(F)c1Cl` (stereo not drawn) [Example I-298, 2-Dimethylamino-ethanesulfonic acid (4-{6-amino-5-[1-(2,6-dichloro-3-fluoro-phenyl)-ethoxy]-pyridin-3-yl}-phenyl)-amide] was run?
**A.** 59 nM
